Columns and labels:
[1] = biological target: Melanin-concentrating hormone receptor (Homo sapiens, UniProt Q969V1+Q99705); experiment: Inhibition of Melanin-concentrating hormone (MCH) mediated [Ca2+] release in IMR-32 cells; assay type: functional, cell-based
[2] = biological target: Melanin-concentrating hormone receptor 1 (Homo sapiens) (UniProt Q99705); experiment: Inhibitory concentration against human Melanin-concentrating hormone receptor 1 expressed in IMR-32 cells using [125I]MCH

By UniProt entry, the sequences of proteins in these tests, tags left out. Where a name states a change or a piece, a line headed by the entry shows the natural chain unless it says otherwise.
UniProt Q969V1: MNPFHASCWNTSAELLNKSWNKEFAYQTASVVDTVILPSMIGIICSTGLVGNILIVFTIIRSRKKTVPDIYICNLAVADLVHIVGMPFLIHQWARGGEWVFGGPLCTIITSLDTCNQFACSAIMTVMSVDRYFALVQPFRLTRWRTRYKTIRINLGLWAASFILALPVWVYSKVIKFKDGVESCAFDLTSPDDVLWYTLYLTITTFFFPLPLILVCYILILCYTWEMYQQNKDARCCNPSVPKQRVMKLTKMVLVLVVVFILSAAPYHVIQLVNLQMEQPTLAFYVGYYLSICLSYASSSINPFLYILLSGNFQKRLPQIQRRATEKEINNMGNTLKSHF

IC50 [1]: > 10000 nM
IC50 [2]: 971 nM
Compound: O=C(Nc1ccc2c(cnn2CCN2CCCC2)c1)NC1CCN(Cc2ccccc2)CC1
